Target: CCR5 (Homo sapiens, UniProt P51681)
Assay: Calcium mobilization assay in CCR5/MOLT-4 cells
Format: cell-based
Settings: read-out: calcium flux inhibition IC50, antagonism, RANTES (CCL5) stimulation

The chains behind the UniProt entries cited, without tags or fusion partners.
UniProt P51681, whole entry: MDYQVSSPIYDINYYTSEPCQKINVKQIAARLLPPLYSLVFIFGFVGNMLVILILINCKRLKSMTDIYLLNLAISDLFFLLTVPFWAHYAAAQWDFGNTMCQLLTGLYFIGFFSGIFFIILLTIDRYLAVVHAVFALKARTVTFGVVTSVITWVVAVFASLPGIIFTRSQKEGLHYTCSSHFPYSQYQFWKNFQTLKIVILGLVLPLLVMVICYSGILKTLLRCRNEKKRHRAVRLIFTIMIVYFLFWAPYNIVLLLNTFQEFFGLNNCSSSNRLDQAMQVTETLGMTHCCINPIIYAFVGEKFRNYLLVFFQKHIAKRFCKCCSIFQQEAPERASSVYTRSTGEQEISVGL

Maraviroc
IC50: 1.57 ± 0.32 nM

Reference: article PMC4374901 (Organic & biomolecular chemistry, 2012)
